This note sets out measurements from BindingDB's records for doi:10.1016/s0028-3908(97)00161-5 (University of Bristol, 1997).

Amino acid sequences for entries named in this document (tags omitted).
UniProt G1SXH9, whole entry: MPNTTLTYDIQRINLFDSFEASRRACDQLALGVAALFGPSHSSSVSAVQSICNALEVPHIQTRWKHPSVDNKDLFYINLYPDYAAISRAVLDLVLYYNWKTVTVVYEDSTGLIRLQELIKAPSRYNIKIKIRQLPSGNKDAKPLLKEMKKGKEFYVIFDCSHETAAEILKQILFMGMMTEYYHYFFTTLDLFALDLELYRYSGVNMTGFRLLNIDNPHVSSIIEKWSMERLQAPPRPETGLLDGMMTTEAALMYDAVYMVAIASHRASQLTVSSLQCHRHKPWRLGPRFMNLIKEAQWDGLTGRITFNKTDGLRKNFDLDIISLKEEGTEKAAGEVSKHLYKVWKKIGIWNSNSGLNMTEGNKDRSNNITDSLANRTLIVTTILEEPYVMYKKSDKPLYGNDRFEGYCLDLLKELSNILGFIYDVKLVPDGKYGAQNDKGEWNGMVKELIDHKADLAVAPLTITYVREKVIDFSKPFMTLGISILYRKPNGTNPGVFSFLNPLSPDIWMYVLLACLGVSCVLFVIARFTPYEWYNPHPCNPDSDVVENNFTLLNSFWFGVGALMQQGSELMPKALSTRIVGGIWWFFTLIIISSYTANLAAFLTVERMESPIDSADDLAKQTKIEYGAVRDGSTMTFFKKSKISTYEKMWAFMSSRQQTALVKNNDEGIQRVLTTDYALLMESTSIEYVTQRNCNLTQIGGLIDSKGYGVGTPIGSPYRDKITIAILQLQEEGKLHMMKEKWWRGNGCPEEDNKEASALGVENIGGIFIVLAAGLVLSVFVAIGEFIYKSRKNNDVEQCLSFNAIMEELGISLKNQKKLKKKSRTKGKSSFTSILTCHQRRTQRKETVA

This assay has as its target Glutamate receptor (Oryctolagus cuniculus, UniProt G1SXH9).

The term Ki denotes a measure of affinity in units of concentration, obtained from inhibition or displacement. A low value points to higher affinity. For `NC(CCC(=O)O)C(=O)O` (stereo unspecified) [glutamic acid dianion], the affinity, expressed as Ki, was 31.1 nM.
